Ab-14 heavy chain CDR variants: yeast mating affinities

Reference: Engelhart et al. 2022, doi:10.1038/s41597-022-01779-4. File: FLAb, binding data.

Target: peptide PDVDLGDISGINAS, taken from heptad repeat 2 (HR2) of SARS-CoV-2 spike.

Each scFv is VH, a (GGGGS)3 linker, VL, as in the parent Ab-14, and differs from it in the CDRs of the heavy chain only.
VH: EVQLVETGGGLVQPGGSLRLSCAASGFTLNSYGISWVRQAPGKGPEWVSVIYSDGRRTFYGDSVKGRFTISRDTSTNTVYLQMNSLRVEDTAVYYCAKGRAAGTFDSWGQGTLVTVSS
VL: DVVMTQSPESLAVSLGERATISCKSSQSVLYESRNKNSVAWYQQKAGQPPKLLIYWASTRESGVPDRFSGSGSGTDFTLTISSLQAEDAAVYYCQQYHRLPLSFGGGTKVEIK

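Phage display of a naive human antibody library on the peptide gave the parent. Variants in AAYL49 differ from the parent at up to three CDR positions; double and triple changes were sampled at random. Affinity was read by AlphaSeq, a pooled yeast mating assay with surface-displayed partners. After mating in shaken culture at 30 °C for 16 h, diploids were selected and their barcode pairs sequenced. Read counts were normalised to the haploid input and turned into Kd by a linear fit to BCL2-family pairs of known affinity, for each replicate. Each pool was mated in three replicate cultures.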

Changes read parent residue, position, new residue, counted from the first residue of the VH shown. Affinities are written as log10 Kd with Kd in nM; a lower number is a better binder. Replicates are averaged; those with no signal do not enter the mean. "nd" marks a missing value. The strain was present, yet no cells mated with the target were sequenced in any replicate, which points to weak or no binding. As a blank, each scFv also met three strains without target: over library AAYL49, 15% of these pairings were detected, typically at 4.06 and seldom below 2.83.

changes	mean, log10 nM	detected
Y60E/S63R	4.23	2/3
F27M/T58A	nd	0/3
S53A/Y60V/G99F	nd	0/3
G33H/R56E/F59A	3.90	1/3
L29W/R100D/S107L	3.65	1/3
S35L/V64D/R100N	nd	0/3
Y52R/R57P/G99C	nd	0/3
N30G/S53F	2.14	3/3
I51T/S63H/T104Y	3.19	1/3
G33A/I51C/F59I	3.57	1/3
V50M/T58G/T104K	4.10	1/3
S31M/I34Q/G103C	4.85	3/3
T58V/A102D/G103F	2.25	2/3
N30E/V64C/T104D	2.73	3/3
K65N/A102D/S107W	nd	0/3
G55S/Y60G/V64L	3.88	1/3
L29C/Y52K/D54R	3.04	1/3
Y32H/S35I	3.97	1/3
S31E/D54E/F105Q	3.55	1/3
V50F/R56T/G103S	4.44	1/3
S31M/F59T	2.95	3/3
R57H/Y60S/A101H	nd	0/3
L29S/G99S/D106M	nd	0/3
R56M/S63Y/T104M	nd	0/3
T28P/R57C/S63Q	nd	0/3
T58D/F105Y/S107N	nd	0/3
G33A/Y52H/R56G	4.47	1/3
F27T/L29G/F59D	3.63	1/3
F27E/N30L/F59C	4.45	2/3
G26C/S35T/Y52D	4.21	1/3
G33I/S35C/F59I	3.53	1/3
S53D/Y60R	nd	0/3
G99K/G103Y	5.70	1/3
V50P/D54Q/A101Y	nd	0/3
I34C/S35N/T104R	nd	0/3
G33T/V50S/A101C	3.12	1/3
Y32W/T58K/R100H	nd	0/3
S31K/G33Q/G103M	nd	0/3
I34Q/G55M/K65Y	nd	0/3
Y52L/R56K/G99H	nd	0/3
G55W/V64I/G99A	nd	0/3
L29H/T104A	4.08	2/3
Y32L/S53L/A101V	3.77	2/3
Y52N/S63E	nd	0/3
Y32I/G61W/D62M	nd	0/3
S31L/G61S/R100E	0.37	3/3
L29V/S31T/S63K	1.42	3/3
N30D/G99F/A101G	nd	0/3
S35W/F105E	nd	0/3
D54F/G61L/D62I	nd	0/3
R57F/R100I/F105R	3.50	1/3
I34V/K65P/A102L	nd	0/3
G33L/S35I/Y60T	2.64	1/3
N30F/Y60P	nd	0/3
R56C/K65I/F105E	4.56	1/3

The first 5 variants above that were never detected:

changes	mean, log10 nM	detected
F27M/T58A	nd	0/3
S53A/Y60V/G99F	nd	0/3
S35L/V64D/R100N	nd	0/3
Y52R/R57P/G99C	nd	0/3
K65N/A102D/S107W	nd	0/3